# Laboratory results taken from PubChem BioAssay AID595 (National Center for Advancing Translational Sciences (NCATS), 2007).
# This is a selection; strong and weak results do not stand in their true shares. Inconclusive results are not listed. The source made the active and inactive calls. Calls come from the whole dose curve; as a rule, active = well fitted curve in either direction with a large enough effect; inconclusive = small, poorly fitted or top-dose-only effect, or another doubt; inactive = flat fitted curve, though single readings scatter.
# Test system: Hsp90 C-terminal peptide / TPR2A (Hop) interaction, human
# Test: qHTS Assay for Disrupters of an Hsp90 Co-Chaperone Interaction
# Settings: AlphaScreen TPR2A-His6 binding biotin-Hsp90 C-terminal peptide; series mostly up to 57 µM; activity change, negative = inhibition: at the top concentration
# Source text: NIH Chemical Genomics Center [NCGC]
# NIH Molecular Libraries Screening Centers Network [MLSCN]
# Hsp90 (heat shock protein 90) is the essential molecular chaperone and it accounts for 1-2% of all cytosolic proteins and is critical for the activity of diverse cellular proteins that are involved in a variety of cellular processes, including development, cell cycle, and steroid hormone signaling. Its client proteins include signaling kinases such as IGF1R, Akt, v-Src, Raf-1; regulators of cell survival such as Bcr-Abl; and transcription factors such as mutated p53, estrogen and progesterone receptors. Hsp90 has emerged as an important target for cancer treatment due to its essential role in maintaining transformation and regulating the function of oncogenic signaling proteins.
# The in vivo function of Hsp90 is regulated by the binding and hydrolysis of ATP at its N-terminal. Geldanamycin binds to ATP site and inhibit Hsp90 function. Geldanamycin and its analogues are under clinical trials in cancer patients.
# This domain contains the binding site for tetratricopeptide repeat (TPR) domains on HOP (Hsp Organizing Protein). TPR is a structural motif used by a significant number of cochaperones by which the in vivo function of Hsp90 is regulated. TPR2A on HOP binds specifically to MEEVD motif of the C-terminal of Hsp90.
# A homogeneous AlphaScreen is developed to assess the interaction between TPR2A and MEEVD motif of the C-terminal of Hsp90 by using the isolated TPR2A domain and a synthesized 20mer Hsp90 C terminal peptide. AlphaScreen is two bead-based proximity-dependent chemical energy transfer luminescent assay platform. TPR2A-His-6 and biotinylated Hsp90 C terminal peptide will bring streptavidin donor beads and nickel chelate acceptor beads to a proximity range (less than 200 nm), and subsequently lead a chemical luminescent reaction upon exciting donor beads with 680 nm laser. Inhibition of TPR2A and MEEVD motif interaction by small molecules could attenuate or abolish this chemical luminescent reaction.
# Counter screening: Biotinylated-His-6 (PerkinElmer) can be utilized as a counter screen, as it serves as a linker to bring streptavidin beads and nickel chelate beads together. The counter screen can exclude alpha screen platform false positives due to small molecules being metal chelators, biotin analogues and imidazole analogues, or due to interfering with oxygen release from donor beads. Such an assay should be utilized to qualify any activity observed in this screen.
# NCGC Assay Protocol Summary:
# The assay was performed on 1536-well white plate (untreated solid bottom). Liquids were dispensed by 1536-well plate washer (Kalypsys, San Diego, CA). Plates were read on EnVision (PerkinElmer, Boston, MA).TPR2A-His6 was produced using a bacteria expression system and purified using a well developed method (Ghosh et al., 2000). Hsp90 C terminal 20-mer peptide with or without an N-terminal biotin group are synthesized using automated solid phase synthesis by the Yale Keck facility. The composition of assay buffer was (in mM) 25 HEPES, 100 KCl, 2 MgCl2 and 2 DTT; 0.1% BSA and 0.01% Tween-20. TPR2A-His6 binding to biotin-Hsp90 will bring streptavidin donor beads and nickel chelate acceptor beads (PerkinElmer) together and can be measured by Alpha reading by EnVision (PerkinElmer). Free Hsp90 blocks biotin-Hsp90 binding to TPR2 and serves as a positive control in the current asssay.
# The assay was performed at room temperature. All compounds were screened as titrations from […] to 46 uM final concentration. The assay was performed in 1536-well format plates (untreated white solid bottom, Corning Inc.) as follows:
# Sequence,Parameter,Value,Description
# 1,Reagent,3 uL TPR2A-His6,Final concentration was 5nM
# 2,Compound,23 nL,Final titration was from 0.7 nM to 46 uM
# 3,Time,15 minutes,Room temperature
# 4,Reagent,1 uL biotin-Hsp90,With and without free Hsp90. Final concentration was 10 nM for biotin-Hsp90 and 10uM for free Hsp90.
# 5,Time,1 hour,Room temperature
# […]
# % is set by controls: 0 for no effect and ±100 for the full control effect; potency is the fitted concentration of half-maximal effect.
SMILES,"activity change, negative = inhibition",Potency
[N-]=[N+]=NCC(O)CN=[N+]=[N-] (stereo not drawn),inactive: -3.58% [at 11 µM],–
C(Cc1nn[nH]n1)c1nn[nH]n1,inactive: -1.98% [at 11 µM],–
CN(C(=O)Cc1ccc(Cl)c(Cl)c1)[C@H]1CCCC[C@@H]1N1CCCC1,inactive,–
Cc1c2non([O-])c-2c(C)[n+](=O)[n+]1[O-],inactive: -4.48%,–
NCC[C@@H](N)CSP(=O)(O)O,inactive: -0.035% [at 11 µM],–
O=[N+]([O-])c1ccc(C[As](=O)(O)O)cc1,inactive: -0.397% [at 11 µM],–
O=C(CO)Nc1ccc([As](=O)(O)O)cc1,inactive: -2.86% [at 11 µM],–
CCc1nc2c(n1)c1c(non1O)c1c2no[n+]1[O-],–,active: 7.94 µM
CN(C(=O)Cc1ccccc1)[C@@H]1CC[C@@]2(CCCO2)C[C@H]1N1CCCC1,inactive: -2.71%,–
O=C(OC1CN2CCC1CC2)c1cccc(Cl)c1 (stereo not drawn),inactive: 0.392%,–
Cc1cc([N+](=O)[O-])cc([N+](=O)[O-])c1O,inactive: 1.5%,–
[N-]=[N+]=Nc1ccc([As](=O)(O)O)cc1,inactive: -0.386% [at 11 µM],–
CN1CCC[C@H](OC(=O)C(c2ccccc2)c2ccccc2)C1,inactive: 2.81% [at 11 µM],–
C[C@@H](O)COc1ccc([As](=O)(O)O)cc1N,inactive: -4.14% [at 11 µM],–
O=P(Nc1nccs1)(c1ccccc1)c1ccccc1,inactive: -2.46%,–
c1nnnn1CCn1cnnn1,inactive: 1.39%,–
O=P1(Nc2nc3ccc(Cl)cc3s2)COc2ccccc2O1 (stereo not drawn),inactive: -1.64%,–
COC(=O)c1cc2c(s1)N=C(c1ccccc1)N(C)P2(=O)N1CCOCC1 (stereo not drawn),inactive: -2.07%,–
NC(=O)Nc1ccc([As](=O)(O)O)cc1,inactive,–

SMILES,"activity change, negative = inhibition",Potency
CCOP1(=S)c2c(C)nn(CCC#N)c2N=C(c2ccc(F)cc2)N1C (stereo not drawn),inactive: 1.31%,–
O=P(Nc1nccs1)(c1ccccc1)c1nc2ccccc2s1 (stereo not drawn),inactive: -7.91%,–
CCOP1(=S)c2c(C)nn(CCC#N)c2N=C(c2ccccc2F)N1C (stereo not drawn),inactive: 2.17%,–
O=[As](O)(O)c1ccc([As](=O)(O)O)cc1,inactive: -1.79% [at 11 µM],–
NS(=O)(=O)Cc1ccc([As](=O)(O)O)cc1,inactive: -0.383% [at 11 µM],–
O=C(CC(=O)c1ccccc1)O[C@H]1CN2CCC1CC2,inactive: 0.132% [at 11 µM],–
CN(C(=O)Cc1ccc(Cl)c(Cl)c1)[C@@H]1CC[C@@]2(CCCO2)C[C@H]1N1CCCC1,inactive: -3.19%,–
CN(C(=O)Cc1ccc(Cl)c(Cl)c1)[C@@H]1CCCC[C@H]1N1CCCC1,inactive,–
CN(CCCl)Cc1cc(Cl)c(NC2=NCCN2)c(Cl)c1,inactive: -10.8%,–
O=P1(Nc2ccccn2)COc2ccccc2OC1,inactive: -6.98%,–
O=P1(Nc2ncccn2)COc2ccccc2OC1,inactive: -3.95%,–
Cc1nn(-c2ccccc2)c2c1P(=O)(N1CCOCC1)N(C)C(c1ccccc1)=N2 (stereo not drawn),inactive: -0.196%,–
CN(N=O)C(=N)N[N+](=O)[O-],inactive: -0.134%,–
COP1(=S)c2c(C)nn(CCC#N)c2N=C(c2ccc(F)cc2)N1C (stereo not drawn),inactive: -1.93%,–
O=C(COc1ccccc1)OC1CN2CCC1CC2 (stereo not drawn),inactive: -4.45%,–
O=C(O)[C@@H](O)c1ccc([As](=O)(O)O)cc1,inactive: 0.946% [at 11 µM],–
O=C(OC1CN2CCC1CC2)C12CC3CC(CC(C3)C1)C2 (stereo not drawn),inactive: -3.95%,–
NC(=O)Nc1cc([As](=O)(O)O)cc(I)c1O,inactive: 2.29% [at 11 µM],–
[N-]=[N+]=NCC(N)=O,inactive: -4.27% [at 11 µM],–
